Source: article PMC6273807, “Identification of Selective ERRγ Inverse Agonists” (Molecules, 2016)

How the values were obtained:
ERRγ [1] = target: T1, ERRγ (Homo sapiens, UniProt P62508); assay: ERRγ functional assay: GAL4-ERRγ luciferase reporter gene in AD293 cells; assay type: cell-based; details: 10 μM, compared with control ligand 4
T1 sequence (P62508 233-458 limits assumed): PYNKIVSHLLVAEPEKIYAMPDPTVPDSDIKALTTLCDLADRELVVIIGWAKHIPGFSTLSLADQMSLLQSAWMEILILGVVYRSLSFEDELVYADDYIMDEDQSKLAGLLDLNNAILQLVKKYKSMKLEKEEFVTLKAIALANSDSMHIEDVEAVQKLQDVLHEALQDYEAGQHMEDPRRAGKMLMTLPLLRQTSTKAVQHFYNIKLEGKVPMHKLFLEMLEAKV
Method: Along with the binding assay campaign, functional activity was determined in order to validate the utility of the binding affinity in a cellular context as described in the Experimental.
Figure 2 Cell based reporter-gene assay screening of 16 analogs ERRγ binding activity in cell was measured by luciferase activity using co-transfection system with GAL4-ERRγ and pFR-luciferase reporter gene.
AD293 cells were cultured in Dulbecco’ modified Eagle medium (DMEM) High glucose supplemented with 0.5% FBS (Hyclone, Logan, UT, USA). After 24 h, culture media was changed with DMEM High glucose containing 10% FBS. DNA constructs, which includes pCMX-Gal4-ERRγ, pFR-luciferase reporter plasmid, pCMV-β-gal were transiently transfected into AD293 cells using TransIT-LT1 transfection reagent (Mirus, Madison, WI, USA) for 24 h. Then, transfected cells were treated with compounds for 24 h and harvested for detection of luciferase activity and β-gal activity. All cells were incubated at 37 °C under 5% CO2 in a humidified incubator [5].

ERRγ [2] = target: T2, ERRγ (Homo sapiens, UniProt P62508); assay: TR-FRET (LanthaScreen) ERRγ binding assay; details: Table 1 screening; 2-fold serial dilution from 10 μM; read-out: ERRγ, IC50 (binding inhibition of ERRγ binding activity)
T2 construct: purchased Life Technologies
T2 sequence (P62508 233-457 limits assumed): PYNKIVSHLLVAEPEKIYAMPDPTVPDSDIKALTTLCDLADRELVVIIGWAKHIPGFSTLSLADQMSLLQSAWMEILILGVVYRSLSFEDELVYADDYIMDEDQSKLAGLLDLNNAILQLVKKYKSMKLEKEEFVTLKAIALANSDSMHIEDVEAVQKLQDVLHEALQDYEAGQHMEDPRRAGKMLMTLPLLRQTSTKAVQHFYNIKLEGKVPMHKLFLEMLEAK
Method: Initials creening was conducted using a well established TR-FRET based ERRγ binding assay as described in the Experimental section at a concentration of 10 μM. Serial dilutions of the synthesized compounds were used to calculate IC50 values for the binding affinity with ERRγ.
ERRγ binding assay was conducted with Lantascreen assay system (Life Technologies, Grand Island, NY, USA), which was based on TR-FRET, followed by manufacturer’s instruction. Briefly, compounds were serially diluted with 2-fold staring from 10 μM and 10 μL of each diluent was added in 384 well plate. Then, GST-conjugated ERRγ LBD (ligand-binding domain) was added to be 5 nM. Next, the mixture of fluorescien-conjugated coactivator PGC1a (final concentration to be 500 nM) and Tb-a-GST antibody (final concentration to be 5 nM) was added. The reaction mixture was incubated at rt in dark state for 1 h.

“(Z)-4-(1-(4-(2-(Dimethylamino)ethoxy)phenyl)-5-hydroxy-2-(1-methyl-1H-indol-6-yl)pent-1-en-1-yl)phenol [Compound 15h]” was tested, and the “ERRγ functional activity in the cellular system (in words)” value (ERRγ [1]) was “partial agonistic activity” and the IC50 (ERRγ [2]) was over 10 µM.
